Target: recombinant human Icmt (Homo sapiens, UniProt O60725)
Assay: Icmt assay: [3H]methyl incorporation from [3H]AdoMet into BFC
Assay type: biochemical
Conditions: Table 2, no pre-incubation

Sequences of proteins named here, by UniProt entry; tags and fusion partners are left off.
UniProt O60725, whole entry, looked up: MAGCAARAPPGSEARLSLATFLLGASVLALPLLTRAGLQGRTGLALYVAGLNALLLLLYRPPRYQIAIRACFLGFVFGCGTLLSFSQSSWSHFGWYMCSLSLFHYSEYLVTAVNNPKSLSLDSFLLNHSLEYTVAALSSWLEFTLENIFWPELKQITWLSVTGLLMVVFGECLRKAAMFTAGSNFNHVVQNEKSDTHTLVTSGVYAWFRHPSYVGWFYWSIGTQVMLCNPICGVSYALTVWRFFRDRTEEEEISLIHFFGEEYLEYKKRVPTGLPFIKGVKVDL

SMILES: CCCCCCn1cc(CC=O)c2cc(-c3ccccc3OC)ccc21
- IC50: > 30 µM
